{"source": "PubChem BioAssay AID588492", "about": "(Sanford-Burnham Center for Chemical Genomics, 2011)", "note": "The entries are a selection whose mix differs from that of the whole data set. Some salts or complexes appear as unconnected parts, following the source record. The source made the active and inactive calls.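 How the source made its calls: active means compounds giving at least 50% protection of heart cells from peroxide-induced death in the single-dose screen, raw or plate-pattern-corrected value; inactive means the rest.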", "data": [{"test": "H9c2 cardiomyocyte survival under peroxide injury – uHTS, H9c2 cells, ATPLite luminescence, primary screen (AID 588492);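 further: 0% = DMSO wells with peroxide and 100% = DMSO wells without peroxide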", "conditions": "H9c2 cardiomyocytes, 2 h, at 20 µM, hits give high values", "values": [{"smiles": "CP(=O)(Nc1ccccc1Br)Oc1ccccc1", "note": "(stereo not drawn)", "protection from H2O2 cell death": "inactive: 5.9%"}, {"smiles": "CP(=O)(OC12CC3CC(CC(C3)C1)C2)OC12CC3CC(CC(C3)C1)C2", "protection from H2O2 cell death": "inactive: 2.9%"}, {"smiles": "CCOC(=O)c1ccc(NP(C)(=O)Oc2ccc(Cl)cc2)cc1", "note": "(stereo not drawn)", "protection from H2O2 cell death": "inactive: -0.2%"}, {"smiles": "COc1ccc(OP(C)(=O)Nc2ccc(Br)cc2)cc1", "note": "(stereo not drawn)", "protection from H2O2 cell death": "inactive: 3.1%"}, {"smiles": "CCN(CC)CC(O)COC(=O)C(O)(c1ccccc1)C1CCCCC1", "note": "(stereo not drawn)", "protection from H2O2 cell death": "inactive: -9.2%"}, {"smiles": "CCc1ccc(OP(C)(=O)Nc2cccnc2)cc1", "note": "(stereo not drawn)", "protection from H2O2 cell death": "inactive: -8.2%"}, {"smiles": "CP(=O)(Oc1ccccc1)N1CCOC1=O", "note": "(stereo not drawn)", "protection from H2O2 cell death": "inactive: 8.7%"}, {"smiles": "O=C(OCCCN1CCCC1)C(O)(c1ccccc1)C1CCCCC1", "note": "(stereo not drawn)", "protection from H2O2 cell death": "inactive: -0.5%"}, {"smiles": "COc1ccccc1OP(C)(=O)Nc1c(C)n(C)n(-c2ccccc2)c1=O", "note": "(stereo not drawn)", "protection from H2O2 cell death": "inactive: -0.3%"}, {"smiles": "CP(=O)(Nc1ccc(Cl)cc1)Oc1ccc(F)cc1", "note": "(stereo not drawn)", "protection from H2O2 cell death": "inactive: -5.9%"}, {"smiles": "CC(C)(C)c1ccc(OP(C)(=O)O)cc1", "protection from H2O2 cell death": "inactive: -6.4%"}, {"smiles": "COc1ccccc1OP(C)(=O)Nc1ccccc1Br", "note": "(stereo not drawn)", "protection from H2O2 cell death": "inactive: 5.9%"}, {"smiles": "CN(C)C(=O)c1c([N+](=O)[O-])cc([N+](=O)[O-])cc1[N+](=O)[O-]", "protection from H2O2 cell death": "inactive: -12.6%"}, {"smiles": "COc1ccccc1OP(C)(=O)Nc1ccc(Br)cc1", "note": "(stereo not drawn)", "protection from H2O2 cell death": "inactive: -1%"}, {"smiles": "CN(C)CCOC(=O)C(O)(c1ccccc1)C1CCCC1", "note": "(stereo not drawn)", "protection from H2O2 cell death": "inactive: -6.4%"}, {"smiles": "COc1ccc(OP(C)(=O)Nc2ccccn2)cc1", "note": "(stereo not drawn)", "protection from H2O2 cell death": "inactive: 5.8%"}, {"smiles": "O=[N+]([O-])c1cc([N+](=O)[O-])c(Nc2ccccn2)c([N+](=O)[O-])c1", "protection from H2O2 cell death": "inactive: -20.8%"}, {"smiles": "Cc1c(NP(C)(=O)Oc2ccc(C(C)C)cc2)c(=O)n(-c2ccccc2)n1C", "note": "(stereo not drawn)", "protection from H2O2 cell death": "inactive: 1.5%"}, {"smiles": "CCc1ccc(OP(C)(=O)O)cc1", "protection from H2O2 cell death": "inactive: 5.1%"}, {"smiles": "COc1ccccc1OP(C)(=O)Nc1ccc(C)cc1C", "note": "(stereo not drawn)", "protection from H2O2 cell death": "inactive: 0.1%"}, {"smiles": "CP(=O)(Nc1ccccn1)Oc1ccccc1", "note": "(stereo not drawn)", "protection from H2O2 cell death": "inactive: 0.5%"}, {"smiles": "Cc1cc(C)cc(OP(C)(=O)Nc2cccc(C(F)(F)F)c2)c1", "note": "(stereo not drawn)", "protection from H2O2 cell death": "inactive: -7.7%"}, {"smiles": "O=C1C(O)=C([N+](=O)[O-])C(=O)C(O)=C1[N+](=O)[O-]", "protection from H2O2 cell death": "inactive: 5.9%"}, {"smiles": "COc1ccc(OP(C)(=O)Nc2ccccc2Br)cc1", "note": "(stereo not drawn)", "protection from H2O2 cell death": "inactive: 0.4%"}, {"smiles": "COc1ccccc1OP(C)(=O)Nc1ccc(C)c(C)c1", "note": "(stereo not drawn)", "protection from H2O2 cell death": "inactive: -2.4%"}, {"smiles": "CP(=O)(OCCOc1ccccc1)OCCOc1ccccc1", "protection from H2O2 cell death": "inactive: 8.5%"}, {"smiles": "CP(=O)(Nc1ccc(Cl)cc1Cl)Oc1ccccc1", "note": "(stereo not drawn)", "protection from H2O2 cell death": "inactive: 1.3%"}, {"smiles": "CCCCCCCCCCCCCCCC1C[N+](C)(C)CCOP(C)(=O)O1", "note": "(stereo not drawn)", "protection from H2O2 cell death": "inactive: -9.7%"}, {"smiles": "COc1ccc(OP(C)(=O)Nc2ccc(SC(F)(F)F)cc2)cc1", "note": "(stereo not drawn)", "protection from H2O2 cell death": "inactive: -11%"}, {"smiles": "CCOC(=O)c1ccc(NP(C)(=O)Oc2ccc(F)cc2)cc1", "note": "(stereo not drawn)", "protection from H2O2 cell death": "inactive: 6%"}, {"smiles": "CCN(CC)CCCOC(=O)C(O)(c1ccccc1)C1CCCCC1", "note": "(stereo not drawn)", "protection from H2O2 cell death": "inactive: -3.1%"}, {"smiles": "Cc1c([N+](=O)[O-])cc([N+](=O)[O-])c(Br)c1[N+](=O)[O-]", "protection from H2O2 cell death": "inactive: 4.7%"}, {"smiles": "O=[N+]([O-])c1cc([N+](=O)[O-])c(OC2CCCCC2O)c([N+](=O)[O-])c1", "note": "(stereo not drawn)", "protection from H2O2 cell death": "inactive: -0.8%"}, {"smiles": "CCCCCOc1ccc(NP(C)(=O)Oc2ccc(Cl)cc2Cl)cc1", "note": "(stereo not drawn)", "protection from H2O2 cell death": "inactive: -2%"}, {"smiles": "CP(=O)(Nc1ccccc1)Oc1ccc(F)cc1", "note": "(stereo not drawn)", "protection from H2O2 cell death": "inactive: 7.5%"}, {"smiles": "O=[N+]([O-])c1cc([N+](=O)[O-])c(Nc2ccc(Cl)cc2)c([N+](=O)[O-])c1", "protection from H2O2 cell death": "inactive: -20.1%"}, {"smiles": "CC(C)c1ccc(OP(C)(=O)Nc2ccc(SC(F)(F)F)cc2)cc1", "note": "(stereo not drawn)", "protection from H2O2 cell death": "inactive: -11.1%"}, {"smiles": "CP(=O)(Nc1ccccc1F)Oc1ccccc1", "note": "(stereo not drawn)", "protection from H2O2 cell death": "inactive: 1.4%"}, {"smiles": "O=C(OCCN1CCN(CCOCc2ccccc2)CC1)C(O)(c1ccccc1)c1ccccc1", "protection from H2O2 cell death": "inactive: -4.3%"}, {"smiles": "O=C(OC1CN2CCC1CC2)c1ccc([N+](=O)[O-])cc1", "note": "(stereo not drawn)", "protection from H2O2 cell death": "inactive: 3.4%"}, {"smiles": "COc1ccc2c(c1O)-c1c(O)c(OC)cc3c1[C@H](C2)[N+](C)(C)CC3.O=[N+]([O-])c1cc([N+](=O)[O-])c([O-])c([N+](=O)[O-])c1[O-]", "protection from H2O2 cell death": "inactive: 0.9%"}, {"smiles": "CP(=O)(Nc1ccc(SC(F)(F)F)cc1)Oc1ccc(F)cc1", "note": "(stereo not drawn)", "protection from H2O2 cell death": "inactive: -6%"}, {"smiles": "CCOP(C)(=S)SCC(=O)NC(C)(CC)C(=O)O", "note": "(stereo not drawn)", "protection from H2O2 cell death": "inactive: -2%"}, {"smiles": "CP(=O)(Nc1ccc2c(c1)OCCO2)Oc1ccccc1", "note": "(stereo not drawn)", "protection from H2O2 cell death": "inactive: 6.2%"}, {"smiles": "Cc1ccccc1NP(C)(=O)Nc1ccccc1C", "protection from H2O2 cell death": "inactive: 3.4%"}, {"smiles": "CN(C)C1(CNC(=O)c2ccc(Cl)c(S(N)(=O)=O)c2)CCCCC1", "protection from H2O2 cell death": "inactive: 3.9%"}, {"smiles": "COc1ccc(OP(C)(=O)Nc2cccc(Br)c2)cc1", "note": "(stereo not drawn)", "protection from H2O2 cell death": "inactive: 1.9%"}, {"smiles": "COc1ccc(NP(C)(=O)Oc2ccccc2OC)cc1", "note": "(stereo not drawn)", "protection from H2O2 cell death": "inactive: -7.2%"}, {"smiles": "CN(C)CCOC(=O)C(O)(c1ccccc1)C1CCCCC1", "note": "(stereo not drawn)", "protection from H2O2 cell death": "inactive: 6.1%"}, {"smiles": "O=[N+]([O-])c1cc([N+](=O)[O-])c(NCC2CCS(=O)(=O)C2)c([N+](=O)[O-])c1", "note": "(stereo not drawn)", "protection from H2O2 cell death": "inactive: -7.6%"}, {"smiles": "Cc1cc(-c2cccc3ccccc23)c(C)cn1.O=[N+]([O-])c1cc([N+](=O)[O-])c(O)c([N+](=O)[O-])c1", "protection from H2O2 cell death": "inactive: -2.2%"}, {"smiles": "O=[N+]([O-])c1ccc(OP2(=O)COCCO2)cc1", "note": "(stereo not drawn)", "protection from H2O2 cell death": "inactive: -4.5%"}, {"smiles": "Cc1c(C(c2ccc3c(c2)OCO3)c2c(C)n(C)n(-c3ccccc3)c2=O)c(=O)n(-c2ccccc2)n1C.O=[N+]([O-])c1cc([N+](=O)[O-])c(O)c([N+](=O)[O-])c1", "protection from H2O2 cell death": "inactive: -1.6%"}]}]}
